Bioassay records (PubChem BioAssay)
UUG fidelity: modulators of yeast start codon fidelity, primary screen, whole organism, S. cerevisiae, single point, plate reader; activity score, % at 18.7 µM; actives 0.13% (n = 350,000); S. cerevisiae UUG-firefly luciferase reporter, luminescence/redox ratio;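 active = replicate mean at a twofold rise or more, about +100% in these data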;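 also: firefly luciferase made from a UUG start codon reports start codon fidelity; reporter light over untreated wells divided by growth signal over untreated wells; some hits fall short of that in this replicate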
DDE Tn6 FP inh: DD(E)-Tn6 binding inhibition, primary FP screen | actives 0.21% (n = 370,000) | inhibition, % at 8.3 µM | AID 720509 | P02675 | Fibrin DD(E) TRITC-Tn6 fluorescence polarization displacement;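 active means inhibition above a per-campaign cutoff: mean of compounds within control limits plus 3 SD, cut at about 15% in these data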;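 further: 0% = median of all compound wells on the plate and 100% = blocking peptide control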
PglD inh: blocks C. jejuni PglD acetyltransferase activity; purified PglD enzyme, DTNB colorimetric CoA detection; inhibition, % at 12.5 µM; actives 0.098% (n = 360,000); AID 602405; in the data active means inhibition above about 16%, passing the limit was not always enough
DDE Tn7 FP inh: inhibitors of Tn7 peptide binding to human fibrin DD(E). P02675. FP displacement of FITC-Tn7 peptide from fibrin DD(E); 0% = median of compound wells per plate. inhibition, % at 8.3 µM. actives 0.13% (n = 370,000). AID 720508;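 active means inhibition above the mean of compounds falling within the control limits plus 3 SD of them, cut at about 14% in these data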;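 further: 0% = plate median of compound wells and 100% = 10 µM Aha-Tn7 peptide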
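Assay system: human fibrin DD(E). Input: DD(E) 2 µM final. Medium: Tris buffer with calcium and detergent, pH 7.8. Compound dosing: single point at 8.3 µM. Timing: 10 min plus 3 h, room temperature. Technique: fluorescence polarization of the labelled Tn7 tracer. Read-out: percent inhibition. Replicates: singlicate testing.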
DDE Tn7 confirm: confirmation of inhibitors of Tn7 binding to human fibrin DD(E); shares compounds with DDE Tn7 FP inh; FP displacement of TRITC-Tn7 peptide from DD(E); 0% set at plate's compound-well median; inhibition, % at 8.3 µM; actives 5% (n = 460); AID 720628;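 active means inhibition above the campaign cutoff, the mean of compounds within control limits plus 3 SD, cut at about 14% in these data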;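 further: 100% = median FP of high control wells holding Aha-Tn7 inhibitor peptide; displacers lower polarization since freed probe rises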
Tn7 DDE ctr: DD(E)-Tn7 binding inhibition, counter-screen; shares compounds with DDE Tn7 FP inh; fibrin DD(E), TRITC-Tn7 probe displacement, fluorescence polarization; inhibition, % at 8.3 µM; actives 3% (n = 460);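 active means inhibition above the cutoff, the mean of compounds lying between the control bounds plus 3 SD of those compounds, cut at about 17% in these data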;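 further: 0% = median of compound sample wells and 100% = excess unlabeled Aha-Tn7 peptide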
The depositor's hits bear a star; · = no result given. Rows were chosen to be rich in hits. Some 0.45% of all compounds tested hit in one or more screens of this group.

| item | compound | DDE Tn7 confirm | DDE Tn7 FP inh | UUG fidelity |
| --- | --- | --- | --- | --- |
| 1 | C[C@@H]1CCCCO[C@@H](CN(C)C(=O)Cc2ccccc2)[C@H](C)CN([C@H](C)CO)C(=O)c2cc(NS(=O)(=O)c3ccc(Cl)cc3)ccc2O1 | · | · | -11.7 |
| 2 | CN1CCN(C(=O)OCCOCCOC(=O)N2CCN(C)CC2)CC1 | 0.3 | 13.9* | -9.3 |
| 3 | COc1ccc(/C=N/c2c(-c3ccco3)nc3ccccn23)cc1OC | 8.0 | 14.9* | -16.4 |
| 4 | O=C(Cc1ccccc1)NNC1=NS(=O)(=O)c2ccccc21 | -3.9 | 13.8* | -19.5 |
| 5 | C=CCC(=O)NC1CCCc2c1cnn2-c1cc(F)cc(F)c1 (stereo not given) | -5.5 | 14.7* | 1.3 |
| 6 | COc1ccccc1-c1cc(N)n(S(=O)(=O)c2ccc(F)c(C)c2)n1 | -2.1 | 14.4* | -7.4 |
| 7 | C/C=C/c1ccc2c(c1)O[C@@H](CN(C)C(=O)c1ccc(F)cc1)[C@H](C)CN([C@@H](C)CO)S2(=O)=O | · | · | 40.4 |
| 8 | Cc1noc(C)c1NC(=O)Nc1cccc2c1O[C@@H](CN(C)C(=O)NC1CCCCC1)[C@H](C)CN([C@@H](C)CO)C2=O | · | · | -4.5 |
| 9 | O=C(c1cc(-c2ccc(O)cc2)on1)N1CCc2ccccc2C1 | 4.0 | 17.8* | -13.8 |
| 10 | CN(C)S(=O)(=O)c1cccc(NC(=O)C2CCN(S(=O)(=O)c3cccs3)CC2)c1 | -6.1 | 14.1* | -9.5 |

| item | PglD inh | Tn7 DDE ctr | DDE Tn6 FP inh |
| --- | --- | --- | --- |
| 1 | 2.2 | · | · |
| 2 | 6.6 | 1.0 | 9.2 |
| 3 | -5.1 | 3.3 | -4.9 |
| 4 | -1.0 | -9.5 | -1.5 |
| 5 | -7.2 | -8.6 | 5.3 |
| 6 | 0.1 | -7.5 | 6.2 |
| 7 | 3.2 | · | · |
| 8 | 0.4 | · | · |
| 9 | -3.3 | -1.0 | -5.0 |
| 10 | 5.2 | -7.0 | -4.5 |

One compound at a time, as listed above. Screens in order: DDE Tn7 confirm, DDE Tn7 FP inh, UUG fidelity, PglD inh, Tn7 DDE ctr, DDE Tn6 FP inh
COc1ccc(/C=N/c2c(-c3ccco3)nc3ccccn23)cc1OC is listed as 8.0, 14.9*, -16.4, -5.1, 3.3, -4.9
C/C=C/c1ccc2c(c1)O[C@@H](CN(C)C(=O)c1ccc(F)cc1)[C@H](C)CN([C@@H](C)CO)S2(=O)=O is listed as ·, ·, 40.4, 3.2, ·, ·

Later entries:
| item | compound | DDE Tn7 confirm | DDE Tn7 FP inh | UUG fidelity |
| --- | --- | --- | --- | --- |
| 11 | CC(=O)Oc1ccc2c(c1)C(=O)c1ccccc1CO2 | -6.1 | 14.3* | -8.0 |
| 12 | CN(C)c1ccc(/C=N/NC(=O)c2ccc(CN3CCOCC3)cc2)cc1Br | 0.4 | 14.2* | · |
| 13 | CN(C(=O)c1cccc(NC(=O)Cc2cccc(NC(=O)C3CCN(C(=O)C4CCC4)CC3)c2)c1)C1CC1 | · | -8.1 | -5.6 |
| 14 | CN(C(=O)c1cccc(NC(=O)Cc2cccc(NC(=O)C3CCN(C(=O)C4CCCCC4)CC3)c2)c1)C1CC1 | 4.2 | 14.7* | 13.8 |
| 15 | COc1ccc2c(CC(=O)O)cc(=O)oc2c1 | 0.2 | 15.1* | -10.8 |
| 16 | COC(=O)Cc1cc(=O)oc2cc(OC)ccc12 | · | -5.5 | -12.3 |
| 17 | O=C1CCCC2=C1C(c1ccsc1)CC(=O)N2c1ccccc1F (stereo not given) | 1.2 | 14.8* | 5.5 |
| 18 | COc1cccc(OC)c1C(=O)Nc1sc2c(c1C#N)CCC2 | -5.4 | 13.8* | 9.9 |
| 19 | Cc1cc2c(cc1C)C(c1cccc([N+](=O)[O-])c1)CC(=O)N2 (stereo not given) | 3.5 | 14.3* | · |
| 20 | O=C(C[C@H]1CC[C@@H]2[C@H](COC[C@H](O)CN2C(=O)c2ccccc2)O1)NCCCN1CCOCC1 | · | · | · |

| item | PglD inh | Tn7 DDE ctr | DDE Tn6 FP inh |
| --- | --- | --- | --- |
| 11 | 0.7 | -4.1 | 3.8 |
| 12 | · | 0.9 | -2.7 |
| 13 | -3.3 | · | 0.0 |
| 14 | 1.5 | -4.9 | -3.9 |
| 15 | -5.7 | -3.4 | 3.8 |
| 16 | 1.7 | · | 0.6 |
| 17 | 4.1 | -2.2 | 4.0 |
| 18 | -3.8 | -8.9 | -2.2 |
| 19 | · | -2.8 | -3.3 |
| 20 | 13.1 | · | · |

Later entries:
| item | compound | DDE Tn7 confirm | DDE Tn7 FP inh | UUG fidelity |
| --- | --- | --- | --- | --- |
| 21 | CC(C)CCN1C(=O)c2cccc3c(N)ccc(c23)C1=O | 8.2 | 48.6* | -23.1 |
| 22 | Cc1cccc(N2C(=O)c3cccc4c(N)ccc(c34)C2=O)c1 | · | 11.0 | -36.1 |
| 23 | C[C@@H]1CN([C@@H](C)CO)C(=O)Cc2cc(NC(=O)Nc3cccc4ccccc34)ccc2O[C@H]1CN(C)Cc1ccncc1 | · | · | · |
| 24 | COc1ccc(CN2CCN(Cc3ccco3)CC2)c(OC)c1 | 1.9 | 14.4* | 1.9 |
| 25 | COc1ccccc1CN1CCN(Cc2ccco2)CC1 | · | 2.8 | -0.3 |
| 26 | Cc1ccc(S(=O)(=O)Nc2ccc3c(c2)C(=O)N([C@@H](C)CO)C[C@@H](C)[C@@H](CN(C)Cc2ccc(Cl)c(Cl)c2)OCCCC[C@@H](C)O3)cc1 | · | · | 3.3 |
| 27 | C[C@@H]1CN([C@@H](C)CO)C(=O)c2cc(NC(=O)c3ccccc3)ccc2O[C@@H](C)CCCCO[C@H]1CN(C)C(=O)Cc1ccccc1 | · | · | 19.0 |
| 28 | C/C(=N\NC(=O)COc1cccc(Cl)c1)c1ccc2c(c1)OCCO2 | · | -0.9 | · |
| 29 | C/C(=N\NC(=O)CSCc1ccc(Cl)cc1)c1ccc2c(c1)OCCO2 | 2.6 | 14.2* | -15.6 |

| item | PglD inh | Tn7 DDE ctr | DDE Tn6 FP inh |
| --- | --- | --- | --- |
| 21 | -8.4 | -1.0 | 8.0 |
| 22 | -6.2 | · | 8.8 |
| 23 | 13.7 | · | · |
| 24 | 2.3 | 0.1 | 7.9 |
| 25 | -1.5 | · | 7.7 |
| 26 | -1.5 | · | · |
| 27 | -1.4 | · | · |
| 28 | · | · | -2.5 |
| 29 | -3.5 | -2.4 | 3.2 |
